Data on one protein can be found in patent US7462599.

One series concerns the target T1, H-Gln-Ala-Ala-NH2.
T1 chain: QAA

In another series the target is T2, Gln^3-Aβ(3-11)a.
T2 chain: QFRHDSGYE

For a further series, the target named is T3, H-Gln-Gln-OH.
T3 chain: QQ

A further series concerns the target T4, [Gln^1]-Gastrin.
T4 chain: QGPWLEEEEEAYGWMDF

B1: recombinant human glutaminyl cyclase (QC, EC 2.3.2.5) (protein)
chain: VSPSASAWPEEKNYHQPAILNSSALRQIAEGTSISEMWQNDLQPLLIERYPGSPGSYAARQHIMQRIQRLQADWVLEIDTFLSQTPYGYRSFSNIISTLNPTAKRHLVLACHYDSKYFSHWNNRVFVGATDSAVPCAMMLELARALDKKLLSLKTVSDSKPDLSLQLIFFDGEEAFLHWSPQDSLYGSRHLAAKMASTPHPPGARGTSQLHGMDLLVLLDLIGAPNPTFPNFFPNSARWFERLQAIEHELHELGLLKDHSLEGRYFQNYSYGGVIQDDHIPFLRRGVPVLHLIPSPFPEVWHTMDDNEENLDESTIDNLNKILQVFVLEYLHL
For the protein B1, in the series with Gln^3-Aβ(3-40), the KM (buffer containing 1% DMSO) turned out to be 89 µM. For the same protein, the KM (substrate conversion by QC) came to 87 µM with H-Gln-Ala-Ala-NH2 and 31 µM in series [Gln^1]-Gastrin. The KM (determined in absence of DMSO) in the series with Gln^3-Aβ(3-11)a was determined as 87 µM. The “KM (discontinuous method)” value in the series with H-Gln-Gln-OH is reported as “KM=175±18 µM”.
